Data reported in patent publication US10889573B2, “Anthelmintic quinoline-3-carboxamide derivatives” (Bayer Animal Health GMBH, priority 2016, dated 2021).

experiment: log P by HPLC on reversed phase columns (Method L0); settings: not given

Compound	logP (Method L0)^[a]	logP (Method L0)	logP (Method L0)[a]
CNc1c(C(=O)N[C@H]2CCOc3ccccc32)cnc2c(-c3cccc(Cl)c3Cl)c(F)ccc12	1.78		
O=C(O)CCSc1c(C(=O)N[C@H]2CCOc3ccccc32)cnc2c(-c3cc(Cl)cc(Cl)c3)cccc12	4.08		
CCN(C)c1c(C(=O)N[C@H]2CCOc3ccccc32)cnc2c(-c3cccc(Cl)c3Cl)cccc12	2.62		
O=C(N[C@H]1CCOc2ccccc21)c1cnc2c(-c3cc(Cl)cc(Cl)c3)c(Cl)ccc2c1N1CCOCC1	3.76		
O=C(N[C@H]1CCc2ccccc21)c1cnc2c(-c3cc(Cl)cc(Cl)c3)c(F)ccc2c1N1CCOCC1	4.61		
O=C(N[C@H]1CCOc2ccccc21)c1cnc2c(-c3cc(F)cc(Cl)c3)c(Cl)ccc2c1N1CCOCC1	4.23		
C[C@@H]1CN(c2c(C(=O)N[C@H]3CCc4ccccc43)cnc3c(-c4cccc(Cl)c4Cl)cccc23)C[C@H](C)O1		4.13	
O=C(N[C@H]1CCOc2ccccc21)c1cnc2c(-c3cc(F)cc(F)c3F)cccc2c1NCCO [566]	1.71		
O=C(N[C@H]1CCOc2ccccc21)c1cnc2c(-c3cc(Cl)nc(Cl)c3)c(F)ccc2c1N1CCOCC1	3.94		
O=C(N[C@H]1CCOc2ccccc21)c1cnc2c(-c3cccc(Cl)c3Cl)c(F)ccc2c1NCCn1ccnc1		1.26	
O=C(N[C@H]1CCOc2ccccc21)c1cnc2c(-c3cc(F)cc(F)c3F)c(F)ccc2c1N1CCOCC1 [Example 540]	3.59		
O=C(N[C@H]1CCOc2ccccc21)c1cnc2c(-c3cc(Cl)nc(Cl)c3)c(F)ccc2c1NCCO		1.84	
O=C(N[C@H]1CCOc2ccccc21)c1cnc2c(-c3cccc4ncsc34)c(F)ccc2c1N1CCOCC1	2.63		
CCN(C)c1c(C(=O)N[C@H]2CCOc3ccccc32)cnc2c(-c3cc(Cl)cc(Cl)c3)cccc12	3.63		
CCNc1c(C(=O)N[C@H]2CCOc3ccccc32)cnc2c(-c3cc(Cl)nc(Cl)c3)c(F)ccc12		2.48	
CNc1c(C(=O)N[C@H]2CCOc3ccccc32)cnc2c(-c3cc(F)cc(F)c3F)cccc12	1.55		
CN(CCO)c1c(C(=O)N[C@H]2CCc3ccccc32)cnc2c(-c3cc(Cl)cc(Cl)c3)c(F)ccc12		4.19	
CNc1c(C(=O)N[C@H]2CCOc3ccccc32)cnc2c(-c3cc(Cl)cc(Cl)c3)c(F)ccc12	1.93		
O=C(N[C@H]1CCOc2ccccc21)c1cnc2c(-c3cc(Cl)cc(Cl)c3)c(F)ccc2c1N1CC(F)C1		2.06	
CCNc1c(C(=O)N[C@H]2CCOc3ccccc32)cnc2c(-c3cc(Cl)cc(Cl)c3)c(F)ccc12		2.23	
CNc1c(C(=O)N[C@H]2CCOc3ccccc32)cnc2c(-c3cc(F)cc(F)c3F)c(Cl)ccc12		1.89	
CON(C)c1c(C(=O)N[C@H]2CCOc3ccccc32)cnc2c(-c3cc(F)cc(F)c3F)cccc12	3.81		
Cc1cc(-c2c(F)ccc3c(N4CCOCC4)c(C(=O)N[C@H]4CCOc5ccccc54)cnc23)c(C)s1	2.8		
O=C(N[C@H]1CCOc2ccccc21)c1cnc2c(-c3cc(Cl)nc(Cl)c3)c(Cl)ccc2c1N1CCOCC1	4.18		

Compound	logP (Method L0)^[a]	logP (Method L0)	logP (Method L0)[a]
O=C(N[C@H]1CCOc2ccccc21)c1cnc2c(-c3cc(Cl)sc3Cl)c(F)ccc2c1N1CCOCC1	4.25		
Cc1nc2c(-c3cc(Cl)cc(Cl)c3)cccc2c(N(C)C)c1C(=O)N[C@H]1CCOc2ccccc21	2.88		
CCNc1c(C(=O)N[C@H]2CCOc3ccccc32)cnc2c(-c3cc(F)cc(F)c3F)c(F)ccc12		2.03	
CC(C)N(C)c1c(C(=O)N[C@H]2CCOc3ccccc32)cnc2c(-c3cc(Cl)cc(Cl)c3)cccc12	4.51		
O=C(N[C@H]1CCOc2ccccc21)c1cnc2c(-c3cc(F)cc(F)c3F)cccc2c1NCCO [567]	1.42		
CC1(C)CC(NC(=O)c2cnc3c(-c4cc(Cl)cc(Cl)c4)c(Cl)ccc3c2N2CCOCC2)c2ccccc21 (centres unmarked)		5.59	
CN(CC1CCOCC1)c1c(C(=O)N[C@H]2CCOc3ccccc32)cnc2c(-c3cccc(Cl)c3Cl)cccc12	3		
O=C(N[C@H]1CCOc2ccccc21)c1cnc2c(-c3cc(Cl)cc(Cl)c3)c(F)ccc2c1NCCO		1.84	
CNc1c(C(=O)N[C@H]2CCOc3ccccc32)cnc2c(-c3cc(F)cc(F)c3F)c(F)ccc12	1.66		
CN(CC1CCOC1)c1c(C(=O)N[C@H]2CCOc3ccccc32)cnc2c(-c3cccc(Cl)c3Cl)c(F)ccc12 (some centres unmarked)		3.61	
CNc1c(C(=O)N[C@H]2CCOc3ccccc32)cnc2c(-c3cc(Cl)nc(Cl)c3)c(F)ccc12	1.9		
COC(=O)CCN(C)c1c(C(=O)N[C@H]2CCOc3ccccc32)cnc2c(-c3cc(Cl)cc(Cl)c3)c(F)ccc12		4.51	
CN(CCO)c1c(C(=O)N[C@H]2CCOc3ccccc32)cnc2c(-c3cc(Cl)cc(Cl)c3Cl)cccc12		3.44	
CN(CCn1ccnc1)c1c(C(=O)N[C@H]2CCOc3ccccc32)cnc2c(-c3cc(Cl)cc(Cl)c3)c(F)ccc12		2.03	
O=C(N[C@H]1CCOc2ccccc21)c1cnc2c(-c3cccc(Cl)c3Cl)cccc2c1N1CCCO1	2.13		
CON(C)c1c(C(=O)N[C@H]2CCc3ccccc32)cnc2c(-c3cc(F)cc(F)c3F)cccc12	3.94		
CN(CCS(C)(=O)=O)c1c(C(=O)N[C@H]2CCOc3ccccc32)cnc2c(-c3cc(Cl)nc(Cl)c3)c(F)ccc12		3.48	
CNc1c(C(=O)N[C@H]2CCOc3ccccc32)cnc2c(-c3cccc(Cl)c3Cl)cccc12	1.66		
O=C(N[C@H]1CCOc2ccccc21)c1cnc2c(-c3cc(Cl)cc(Cl)c3)cccc2c1NCC1COC1	2.19		
Cc1nc2c(-c3cc(Cl)cc(Cl)c3)cccc2c(N2CCOCC2)c1C(=O)N[C@H]1CCOc2ccccc21	4.51		
CN(CCO)c1c(C(=O)N[C@H]2CCOc3ccccc32)cnc2c(-c3cccc(Cl)c3Cl)cccc12		2.43	
O=C(N[C@H]1CCOc2ccccc21)c1cnc2c(-c3cccc(Cl)c3Cl)cccc2c1NCC1COC1	1.75		
CON(C)c1c(C(=O)N[C@H]2CCOc3ccccc32)cnc2c(-c3cc(Cl)nc(Cl)c3)c(Cl)ccc12	4.46		
CNc1c(C(=O)N[C@H]2CCOc3ccccc32)cnc2c(-c3cc(Cl)cc(Cl)c3)c(Cl)ccc12		2.09	

Compound	logP (Method L0)^[a]	logP (Method L0)	logP (Method L0)[a]
CN(CC(F)F)c1c(C(=O)N[C@H]2CCOc3ccccc32)cnc2c(-c3cccc(Cl)c3Cl)cccc12	4.36		
C[C@@H]1CN(c2c(C(=O)N[C@H]3CCOc4ccccc43)cnc3c(-c4cccc(Cl)c4Cl)cccc23)C[C@H](C)O1		4.03	
COc1ccc2c(c1)CC[C@@H]2NC(=O)c1cnc2c(-c3cc(Cl)cc(Cl)c3)cccc2c1N(C)C			2.84
O=C(N[C@H]1CCOc2ccccc21)c1cnc2c(-c3cc(F)cc(F)c3F)c(F)ccc2c1NCCn1cccn1		2.3	
CN(CCS(C)(=O)=O)c1c(C(=O)N[C@H]2CCOc3ccccc32)cnc2c(-c3cc(Cl)cc(Cl)c3)c(F)ccc12		3.9	
O=C(N[C@H]1CCOc2ccccc21)c1cnc2c(-c3cc(Cl)ccc3F)c(Cl)ccc2c1N1CCOCC1	4.03		
Cc1ccc(C)c(-c2c(F)ccc3c(N4CCOCC4)c(C(=O)N[C@H]4CCOc5ccccc54)cnc23)c1	2.96		
O=C(N[C@H]1CCOc2ccccc21)c1cnc2c(-c3cccc(C(F)(F)F)c3)c(Cl)ccc2c1N1CCOCC1	4.13		
CC(=O)OCCNc1c(C(=O)N[C@H]2CCOc3ccccc32)cnc2c(-c3cccc(Cl)c3Cl)cccc12		1.92	
CN(CCO)c1c(C(=O)N[C@H]2CCOc3ccccc32)cnc2c(-c3cc(Cl)nc(Cl)c3)cccc12		3.25	
CON(C)c1c(C(=O)N[C@H]2CCOc3ccccc32)cnc2c(-c3cc(F)cc(F)c3F)c(F)ccc12	3.9		
CCS(=O)(=O)c1c(C(=O)N[C@H]2CCOc3ccccc32)cnc2c(-c3cccc(Cl)c3Cl)cccc12	3.94		
CC(C)N(C)c1c(C(=O)N[C@H]2CCOc3ccccc32)cnc2c(-c3cccc(Cl)c3Cl)cccc12	3.29		
O=C(N[C@H]1CCOc2ccccc21)c1cnc2c(-c3cc(Cl)cc(Cl)c3)cccc2c1NCCn1ccnc1		1.24	
CN(CCO)c1c(C(=O)N[C@H]2CCOc3ccccc32)cnc2c(-c3cc(F)cc(F)c3F)cccc12		2.63	
O=C(N[C@H]1CCOc2ccccc21)c1cnc2c(-c3cc(F)cc(F)c3F)c(F)ccc2c1NCCO		1.61	
O=C(N[C@H]1CCOc2ccccc21)c1cnc2c(-c3cc(F)c(OC(F)F)c(F)c3)c(F)ccc2c1N1CCOCC1	3.68		
O=C(N[C@H]1CCOc2ccccc21)c1cnc2c(-c3cccc(F)c3F)c(F)ccc2c1N1CCOCC1	3.33		
O=C(N[C@H]1CCOc2ccccc21)c1cnc2c(-c3cc(Cl)nc(Cl)c3)cccc2c1NCCO	1.53		
O=C(N[C@H]1CCOc2ccccc21)c1cnc2c(-c3cccc(Cl)c3Cl)c(F)ccc2c1NCCO	1.66		
CN(CCO)c1c(C(=O)N[C@H]2CCOc3ccccc32)cnc2c(-c3cc(Cl)cc(Cl)c3)c(F)ccc12		3.76	
Cc1nc2c(-c3cc(F)cc(F)c3F)cccc2c(N(C)C)c1C(=O)N[C@H]1CCOc2ccccc21	2.34		

same assay, conditions: tested form: racemate

Compound	logP (Method L0)
O=C1CC(NC(=O)c2cnc3c(-c4cc(Cl)cc(Cl)c4)cccc3c2N2CCOCC2)c2ccccc21 (centres unmarked)	4.08
